Measurements taken from patent US9855310B2, “Coix seed oil containing 8 triglycerides, and pharmaceutical preparation and use thereof” (ZHEJIANG KANGLAITE GROUP CO., LTD., priority 2014, dated 2018).

Tested on: QGY human hepatoma
Assay: Growth of QGY human hepatoma transplanted in nude mice
Conditions: 2 mg/kg, ip × 7qd

- Weight of animal start/end: start: 21.7
SMILES: COc1cccc2c1C(=O)c1c(O)c3c(c(O)c1C2=O)C[C@@](O)(C(=O)CO)C[C@@H]3O[C@H]1C[C@H](N)[C@H](O)[C@H](C)O1 [Adriamycin]
